Columns and labels:
[1] = molecular target: human adrenergic-α2A receptor (Homo sapiens, UniProt P08913); experiment: Radioligand binding experiment for hα2A-adrenergic receptor ([3H]raulwolscine); details: [3H]raulwolscine 1 nM, 60 minutes at 25° C.
Method: (§1) The interaction of the compounds of Formula (I) with α2C-adrenoceptor receptors was assessed in in vitro radioligand binding experiments. In general, a low concentration of a radioligand with a high binding affinity for a particular receptor or transporter is incubated with a sample of a tissue preparation enriched in a particular receptor or transporter or with a preparation of cells expressing cloned human receptors in a buffered medium. During the incubation, the radioligand binds to the receptor or transporter. When equilibrium of binding is reached, the receptor bound radioactivity is separated from the non-bound radioactivity, and the receptor- or transporter-bound activity is counted. The interaction of the test compounds with the receptor is assessed in competition binding experiments. Various concentrations of the test compound are added to the incubation mixture containing the receptor- or transporter preparation and the radioligand. The test compound in proportion to its binding affinity and its concentration inhibits binding of the radioligand. The radioligand used for […] receptor binding was [^3H]-raulwolscine.
(§2) CHO cells, stabile transfected with human adrenergic-α2A, -α2B or α2C receptor cDNA, were cultured in Dulbecco's Modified Eagle's Medium (DMEM)/Nutrient mixture Ham's F12 (ratio 1:1)(Gibco, Gent-Belgium) supplemented with 10% heat inactivated fetal calf serum (Life Technologies, Merelbeke-Belgium) and antibiotics (100 IU/ml penicillin G, 100 μg/ml streptomycin sulphate, 110 μg/ml pyruvic acid and 100 μg/ml L-glutamine). One day before collection, cells were induced with 5 mM sodiumbutyrate. Upon 80-90% of confluence, cells were scraped in phosphate buffered saline without Ca^2+ and Mg^2+ and collected by centrifugation at 1500×g for 10 minutes. The cells were homogenised in Tris-HCl 50 mM using an Ultraturrax homogenizer and centrifuged for 10 minutes at 23,500×g. The pellet was washed once by resuspension and rehomogenization and the final pellet was resuspended in Tris-HCl, divided in 1 ml aliquots and stored at −70° C.
(§3) Membranes were thawed and re-homogenized in incubation buffer (glycylglycine 25 mM, pH 8.0). In a total volume of 500 μl, 2-10 μg protein was incubated with [^3H]raulwolscine (NET-722) (New England Nuclear, USA) (1 nM final concentration) with or without competitor for 60 minutes at 25° C. followed by rapid filtration over GF/B filter using a Filtermate196 harvester (Packard, Meriden, Conn.). Filters were rinsed extensively with ice-cold rinsing buffer (Tris-HCl 50 mM pH 7.4). Filter-bound radioactivity was determined by scintillation counting in a Topcount (Packard, Meriden, Conn.) and results were expressed as counts per minute (cpm). Non-specific binding was determined in the presence of 1 μM oxymetazoline for hα2A- and hα2B receptors and 1 μM spiroxatrine for hα2C receptors.
(§4) Data from assays in the presence of compound were calculated as a percentage of total binding measured in the absence of test compound. Inhibition curves, plotting percent of total binding versus the log value of the concentration of the test compound, were automatically generated, and sigmoidal inhibition curves were fitted using non-linear regression. The pIC50 values of test compounds were derived from individual curves.

Amino acid sequences for entries named in this document (tags omitted).
UniProt P08913, whole entry: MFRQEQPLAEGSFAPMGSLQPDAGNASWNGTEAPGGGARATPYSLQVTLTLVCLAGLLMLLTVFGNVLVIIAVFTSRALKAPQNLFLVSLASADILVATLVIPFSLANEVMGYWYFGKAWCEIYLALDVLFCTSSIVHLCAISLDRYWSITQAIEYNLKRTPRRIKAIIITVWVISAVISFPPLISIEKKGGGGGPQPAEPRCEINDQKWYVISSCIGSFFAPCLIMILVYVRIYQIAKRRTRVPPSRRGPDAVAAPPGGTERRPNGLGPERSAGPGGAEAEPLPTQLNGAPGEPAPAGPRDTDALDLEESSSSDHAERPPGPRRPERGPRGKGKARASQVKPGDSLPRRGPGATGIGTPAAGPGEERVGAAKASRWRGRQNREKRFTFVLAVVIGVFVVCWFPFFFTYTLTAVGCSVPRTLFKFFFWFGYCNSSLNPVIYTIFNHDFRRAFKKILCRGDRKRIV
UniProt P18825, whole entry: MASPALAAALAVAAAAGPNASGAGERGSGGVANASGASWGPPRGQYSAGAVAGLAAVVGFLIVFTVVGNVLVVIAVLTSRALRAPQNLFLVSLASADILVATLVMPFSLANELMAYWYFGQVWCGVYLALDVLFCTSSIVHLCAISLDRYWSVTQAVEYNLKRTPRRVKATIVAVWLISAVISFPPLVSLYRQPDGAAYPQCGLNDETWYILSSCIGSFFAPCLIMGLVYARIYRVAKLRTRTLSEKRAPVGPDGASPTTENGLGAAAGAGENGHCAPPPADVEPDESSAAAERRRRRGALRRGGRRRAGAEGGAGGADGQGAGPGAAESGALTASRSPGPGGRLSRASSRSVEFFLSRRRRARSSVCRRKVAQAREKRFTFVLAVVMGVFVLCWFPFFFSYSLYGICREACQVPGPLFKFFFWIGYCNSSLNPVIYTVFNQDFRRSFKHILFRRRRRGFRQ
UniProt P31645, whole entry: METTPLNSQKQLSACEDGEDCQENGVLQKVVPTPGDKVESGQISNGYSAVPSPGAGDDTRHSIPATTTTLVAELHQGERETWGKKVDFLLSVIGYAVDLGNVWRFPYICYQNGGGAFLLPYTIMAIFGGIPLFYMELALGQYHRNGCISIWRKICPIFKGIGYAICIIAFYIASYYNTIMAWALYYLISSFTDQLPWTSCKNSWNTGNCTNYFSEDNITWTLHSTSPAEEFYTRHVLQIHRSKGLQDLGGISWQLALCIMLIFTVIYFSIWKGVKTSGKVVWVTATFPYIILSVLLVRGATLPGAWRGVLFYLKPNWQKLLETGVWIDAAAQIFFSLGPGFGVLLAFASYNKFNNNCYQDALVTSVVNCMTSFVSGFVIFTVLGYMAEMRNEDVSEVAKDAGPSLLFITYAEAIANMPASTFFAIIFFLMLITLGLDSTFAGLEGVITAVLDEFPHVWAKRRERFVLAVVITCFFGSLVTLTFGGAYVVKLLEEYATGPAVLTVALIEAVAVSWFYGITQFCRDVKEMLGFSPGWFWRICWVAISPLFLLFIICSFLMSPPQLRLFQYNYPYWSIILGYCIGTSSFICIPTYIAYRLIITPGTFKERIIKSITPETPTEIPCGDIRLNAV

[2] = molecular target: human adrenergic-α2C receptor (Homo sapiens, UniProt P18825); experiment: Radioligand binding experiment for hα2C-adrenoceptor ([3H]raulwolscine); details: [3H]raulwolscine 1 nM, 60 minutes at 25° C.
Method: as §1, §2, §3, §4

5HT-transporter = 5HT-transporter (Homo sapiens, UniProt P31645); experiment: Binding experiment for the 5HT-transporter ([3H]paroxetine, human platelet membranes); details: [3H]paroxetine 0.5 nM, 60 min at 25° C.

| SMILES | h-α2A pIC50 [1] | h-α2C pIC50 [2] | h-5HTT pIC50 (5HT-transporter) | h-α2A pIC50 ([1]; tested form: 2CF3COOH) | h-α2C pIC50 ([2]; tested form: 2CF3COOH) | h-5HTT pIC50 (5HT-transporter; tested form: 2CF3COOH) |
| --- | --- | --- | --- | --- | --- | --- |
| O=C(CCC(Cn1ccnc(NC2CCN(Cc3cccc4ccccc34)CC2)c1=O)C(=O)c1ccccc1)c1ccccc1 (stereo not drawn) | 5.9 | 6.8 | 7.5 |  |  |  |
| CCCOCc1ccc(-n2ccnc(NC3CCN(Cc4ccc5ccccc5c4)CC3)c2=O)cc1 | 6.8 | 8.2 | 7.7 |  |  |  |
| CCCNCc1ccc(-c2[nH]c(=O)c(NC3CCN(Cc4ccc5ccccc5c4)CC3)nc2Cl)cc1 |  |  |  | 6.3 | 6.8 | 6.6 |
| CN1CCN(C(=O)NCc2ccc(-n3ccnc(NC4CCN(Cc5ccc6ccccc6c5)CC4)c3=O)cc2)CC1 | 6.8 | 7.8 | 8.3 |  |  |  |
| CCCNCc1ccc(-c2c(Cl)nc(NC3CCN(Cc4ccc5ccccc5c4)CC3)c(=O)n2Cc2ccc(OC)cc2)cc1 | 6.3 | 6.6 | 6.9 |  |  |  |

The next lines start with results.

| h-α2A pIC50 [1] | h-α2C pIC50 [2] | h-5HTT pIC50 (5HT-transporter) | SMILES | h-α2A pIC50 ([1]; tested form: 2CF3COOH) | h-α2C pIC50 ([2]; tested form: 2CF3COOH) | h-5HTT pIC50 (5HT-transporter; tested form: 2CF3COOH) |
| --- | --- | --- | --- | --- | --- | --- |
| 6.5 | 6.8 | 6.9 | COc1ccc(Cn2c(-c3cccc(CN4CCOCC4)c3)c(Cl)nc(NC3CCN(Cc4ccc5ccccc5c4)CC3)c2=O)cc1 |  |  |  |
| 6.3 | 6.8 | 7.1 | COc1ccc(Cn2c(-c3cccc(CNCCF)c3)c(Cl)nc(NC3CCN(Cc4ccc5ccccc5c4)CC3)c2=O)cc1 |  |  |  |
| 5.5 | 5.8 | 6.2 | COc1ccc(Cn2c(-c3cccc(Br)c3)c(Cl)nc(NC3CCN(Cc4ccc5ccccc5c4)CC3)c2=O)cc1 |  |  |  |
| 5.9 | 5.7 | 5.7 | COc1ccc(Cn2c(-c3ccc(Br)cc3)c(Cl)nc(NC3CCN(Cc4ccc5ccccc5c4)CC3)c2=O)cc1 |  |  |  |

From US20080269251A1, “Substituted Pyrazinone Derivatives as Alpha2C-Adrenoreceptor Antagonists” (priority 2005, published 2008)
